Data published in paper PMC4128571 (Drug testing and analysis, 2014).

By UniProt entry, the sequences of proteins in these tests, tags left out.
UniProt P23977, whole entry: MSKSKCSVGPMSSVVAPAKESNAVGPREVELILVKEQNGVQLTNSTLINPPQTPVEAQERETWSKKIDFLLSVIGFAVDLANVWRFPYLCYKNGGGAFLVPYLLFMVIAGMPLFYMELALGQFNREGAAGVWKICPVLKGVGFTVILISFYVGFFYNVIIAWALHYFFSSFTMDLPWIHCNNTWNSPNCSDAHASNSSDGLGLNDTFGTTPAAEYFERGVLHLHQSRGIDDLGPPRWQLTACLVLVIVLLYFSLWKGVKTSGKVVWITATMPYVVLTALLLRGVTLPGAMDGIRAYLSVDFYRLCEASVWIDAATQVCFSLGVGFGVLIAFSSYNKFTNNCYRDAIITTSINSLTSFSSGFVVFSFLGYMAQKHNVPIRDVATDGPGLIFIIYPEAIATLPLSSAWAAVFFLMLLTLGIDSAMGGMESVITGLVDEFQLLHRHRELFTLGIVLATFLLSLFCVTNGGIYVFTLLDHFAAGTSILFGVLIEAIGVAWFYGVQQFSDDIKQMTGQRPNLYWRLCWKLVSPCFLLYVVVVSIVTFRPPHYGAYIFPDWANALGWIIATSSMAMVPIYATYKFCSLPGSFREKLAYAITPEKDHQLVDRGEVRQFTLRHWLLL
UniProt P31652, whole entry: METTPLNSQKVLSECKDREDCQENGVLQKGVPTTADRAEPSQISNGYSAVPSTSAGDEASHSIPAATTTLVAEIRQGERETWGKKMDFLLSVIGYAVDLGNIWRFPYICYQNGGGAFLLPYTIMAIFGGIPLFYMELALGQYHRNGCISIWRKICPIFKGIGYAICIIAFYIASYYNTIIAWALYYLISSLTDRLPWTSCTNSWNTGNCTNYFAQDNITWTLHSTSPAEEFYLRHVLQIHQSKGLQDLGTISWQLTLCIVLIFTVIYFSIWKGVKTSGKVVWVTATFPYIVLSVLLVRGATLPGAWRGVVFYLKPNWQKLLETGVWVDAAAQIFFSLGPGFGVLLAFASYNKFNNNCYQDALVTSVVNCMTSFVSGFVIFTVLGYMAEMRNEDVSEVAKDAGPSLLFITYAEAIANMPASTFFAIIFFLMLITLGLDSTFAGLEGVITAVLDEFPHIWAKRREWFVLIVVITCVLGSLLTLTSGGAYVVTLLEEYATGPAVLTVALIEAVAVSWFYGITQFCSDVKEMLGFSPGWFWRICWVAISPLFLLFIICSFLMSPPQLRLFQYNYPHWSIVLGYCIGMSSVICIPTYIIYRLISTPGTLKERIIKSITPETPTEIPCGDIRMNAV

Experiments:
[1] = biological target: dopamine transporters (DAT) (Rattus norvegicus, UniProt P23977); type: biochemical; settings: rat brain synaptosomes
5-HT transporters (SERT) = 5-HT transporters (SERT) (Rattus norvegicus, UniProt P31652); type: biochemical; settings: rat brain synaptosomes

## C[C@H](N)Cc1ccccc1 [d-Amphetamine]
[1]
  Efficacy to evoke release at DAT (of maximal release): fully efficacious
5-HT transporters (SERT)
  Efficacy to evoke release at SERT (of maximal release): fully efficacious
